## Antibody variant affinities, Ab-14 light chain, assay 1

Antigen: PDVDLGDISGINAS, a 14-residue peptide of the SARS-CoV-2 spike HR2 region.

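The starting antibody came from a phage panning campaign against this peptide. Variants in AAYL50 differ from the parent at up to three CDR positions; double and triple changes were sampled at random. The scFvs were displayed on barcoded MATa yeast, the peptide on MATalpha yeast. Binding brings cells together so that they mate, and sequencing counts the barcode pairs among the diploids. Each replicate has its own calibration line, from reference interactions of the BCL2 family. The assay was run in three technical replicates.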

The variants keep the heavy chain, the linker and the frameworks of Ab-14 (scFv order VH, three GGGGS repeats, VL).
VH: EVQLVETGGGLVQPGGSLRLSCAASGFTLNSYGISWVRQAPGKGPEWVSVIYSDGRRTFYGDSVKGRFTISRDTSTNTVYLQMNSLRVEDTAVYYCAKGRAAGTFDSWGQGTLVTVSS
VL: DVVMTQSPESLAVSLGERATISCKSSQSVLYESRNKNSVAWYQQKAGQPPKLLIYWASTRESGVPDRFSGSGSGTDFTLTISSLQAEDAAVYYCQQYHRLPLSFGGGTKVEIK

Positions count from residue 1 of the parent VL; S26V puts V in place of S. The read-out is the apparent dissociation constant on a log10 scale (nM): the lower, the stronger. Averages over replicates are reported, and they cover detected replicates only. A pair that was not seen in any replicate is written "nd"; this usually means weak binding, but a binder can also be missed.

changes,mean log10 Kd (nM),seen in
S26V/Q95R,4.94,3 of 3
S28I/V29L/V39I,1.14,3 of 3
N35L/S58Q/T59F,2.67,3 of 3
S33C/R34M/S62M,3.21,3 of 3
S38L/A57F,4.94,2 of 3
A57C/S62G/H98S,4.40,3 of 3
S26K/E32C/A40Q,5.24,1 of 3
L30R/S38P/S62F,nd,0 of 3
S26T/L30E/P101S,1.47,3 of 3
N35I/L102E,2.63,3 of 3
S28K/S33M/R60M,4.07,1 of 3
V29N/E61I/H98M,4.25,1 of 3
N37C/S58F/P101Q,nd,0 of 3
K24A/E32V/R60G,2.23,1 of 3
S38R/S58R/R60W,nd,0 of 3
E61V/Y97R,1.22,3 of 3
V29P/L30E/T59F,1.02,3 of 3
K36P/H98Q/R99G,1.19,3 of 3
S26E/V29G/V39M,2.99,3 of 3
K24G/L30W/A57D,1.81,3 of 3
Q27C/N35M/S38K,nd,0 of 3
Q27D/E32F,2.35,3 of 3
E32P/N35M/V39G,nd,0 of 3
W56C/R99P,3.13,2 of 3
K24L/S28F/E32T,nd,0 of 3
S33C/T59R,3.69,1 of 3
S28V/N37V/Q95N,nd,0 of 3
S25G/A57D/S103I,2.78,1 of 3
L30H/E32W/A57V,2.46,3 of 3
Q27V/V29A/R99Q,0.44,3 of 3
R34P/N37P/V39E,nd,0 of 3
S26A/S38D/Q95L,2.65,3 of 3
S26K/Y31M/W56L,1.68,3 of 3
K24H/L30G/N35M,0.91,3 of 3
L30V/A57C/Q95F,5.94,2 of 3
S28N/N37S,1.13,3 of 3
V29E/E32K/P101G,1.07,3 of 3
S28N/N35F/S58E,2.00,3 of 3
S28P/L30A/T59L,0.88,3 of 3
S28A/N35A/Y97P,nd,0 of 3
S38Y/V39E/Q96E,nd,0 of 3
S58V/E61K,3.01,1 of 3
S28T/Y31D/R34L,0.23,3 of 3
R34M/S62A/Y97K,3.22,1 of 3
S25M/L30M/H98C,0.27,3 of 3
Y31F/S38H/A40E,3.69,1 of 3
Q27M/A57K/E61H,4.00,3 of 3
V39S/T59S/R99L,nd,0 of 3
S25W/A57T/R99Q,1.18,3 of 3
V39P/A40H/A57N,5.61,2 of 3
S25P/S38H/R60Y,5.42,2 of 3
T59C/E61C/S62Q,1.09,3 of 3
S26M/K36P/V39D,nd,0 of 3
S28Q/Y31E/E61Y,3.52,3 of 3
L30K/L100G,3.98,1 of 3
K36R/A57E/S58Q,2.63,3 of 3
S38C/S58G/H98E,3.86,3 of 3
E61C/L102C/S103Y,nd,0 of 3
S33G/T59S/R60G,4.66,2 of 3
S58F/R60M/Y97G,nd,0 of 3
K24P/S25F/V39I,1.74,3 of 3
A40D/E61F/Q96C,nd,0 of 3
S33M/Q96M/H98V,nd,0 of 3
S26M/Y97S,0.82,3 of 3
S62D/L100G/S103N,nd,0 of 3
S26M/S58Q/P101V,5.28,1 of 3
E61S/Q95N/Y97W,1.42,3 of 3
S33W/A40E/P101Q,nd,0 of 3
N35D/T59A/Q95E,nd,0 of 3
T59D/R99D/S103I,3.14,3 of 3
Q27S/E61Q/Y97W,5.69,1 of 3
N37I/L100E/S103V,nd,0 of 3
S26H/A57H/L100I,nd,0 of 3
R60W/Q96D,3.46,2 of 3

Empty control strains, which show no peptide, gave a signal in 18% of pairings with library AAYL50; the median was 4.19 and 95% of these signals were weaker than 2.99. No background was subtracted.

Data: MIT Lincoln Laboratory AlphaSeq set, Engelhart et al. 2022, doi:10.1038/s41597-022-01779-4, as distributed in FLAb.